This note sets out measurements from ChEMBL document CHEMBL2218924, “A broad activity screen in support of a chemogenomic map for kinase signalling research and drug discovery” (Biochem J, 2013).

Protein sequences, listed by entry. Tags and fused reporters are not part of them. Lines headed by an entry give the natural chain unless they say otherwise; changes in a name come on top.
UniProt Q9NYY3: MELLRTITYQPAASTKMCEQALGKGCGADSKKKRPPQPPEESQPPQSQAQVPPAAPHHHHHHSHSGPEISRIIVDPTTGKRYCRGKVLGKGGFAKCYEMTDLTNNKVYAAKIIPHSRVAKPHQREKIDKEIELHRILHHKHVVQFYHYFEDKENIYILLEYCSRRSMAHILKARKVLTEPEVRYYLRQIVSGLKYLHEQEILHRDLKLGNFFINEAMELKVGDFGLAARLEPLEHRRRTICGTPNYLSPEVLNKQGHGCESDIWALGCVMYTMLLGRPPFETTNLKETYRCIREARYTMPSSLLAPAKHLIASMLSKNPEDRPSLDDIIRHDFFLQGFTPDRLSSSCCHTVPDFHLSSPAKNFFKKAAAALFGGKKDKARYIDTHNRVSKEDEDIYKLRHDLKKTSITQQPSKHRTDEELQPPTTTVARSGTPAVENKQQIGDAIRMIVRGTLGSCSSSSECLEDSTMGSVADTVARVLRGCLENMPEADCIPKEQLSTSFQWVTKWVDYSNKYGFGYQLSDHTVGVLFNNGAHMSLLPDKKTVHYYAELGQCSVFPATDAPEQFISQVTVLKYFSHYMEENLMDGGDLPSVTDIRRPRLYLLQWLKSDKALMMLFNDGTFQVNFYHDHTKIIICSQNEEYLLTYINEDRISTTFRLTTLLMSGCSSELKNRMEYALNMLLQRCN
UniProt O75582, whole entry, looked up: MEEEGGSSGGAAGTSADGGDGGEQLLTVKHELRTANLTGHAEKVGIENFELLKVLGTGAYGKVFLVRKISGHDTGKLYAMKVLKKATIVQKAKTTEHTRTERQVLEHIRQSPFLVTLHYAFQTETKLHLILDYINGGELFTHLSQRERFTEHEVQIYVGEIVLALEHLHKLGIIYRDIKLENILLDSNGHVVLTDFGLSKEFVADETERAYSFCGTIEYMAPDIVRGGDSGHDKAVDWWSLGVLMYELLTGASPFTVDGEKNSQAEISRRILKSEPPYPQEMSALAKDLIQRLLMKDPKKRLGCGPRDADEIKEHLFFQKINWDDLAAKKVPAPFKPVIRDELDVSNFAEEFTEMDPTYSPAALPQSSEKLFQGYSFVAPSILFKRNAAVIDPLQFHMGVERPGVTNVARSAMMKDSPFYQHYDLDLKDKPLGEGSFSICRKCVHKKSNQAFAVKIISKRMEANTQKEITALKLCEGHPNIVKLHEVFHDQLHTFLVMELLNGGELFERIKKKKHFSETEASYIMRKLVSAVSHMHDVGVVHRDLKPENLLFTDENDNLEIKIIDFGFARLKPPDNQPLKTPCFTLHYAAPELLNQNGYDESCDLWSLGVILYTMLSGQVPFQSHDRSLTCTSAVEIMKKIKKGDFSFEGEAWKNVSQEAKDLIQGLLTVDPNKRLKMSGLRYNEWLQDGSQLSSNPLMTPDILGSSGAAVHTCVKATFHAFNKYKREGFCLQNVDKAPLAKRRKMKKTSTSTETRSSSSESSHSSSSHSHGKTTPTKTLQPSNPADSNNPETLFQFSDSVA
UniProt O15264: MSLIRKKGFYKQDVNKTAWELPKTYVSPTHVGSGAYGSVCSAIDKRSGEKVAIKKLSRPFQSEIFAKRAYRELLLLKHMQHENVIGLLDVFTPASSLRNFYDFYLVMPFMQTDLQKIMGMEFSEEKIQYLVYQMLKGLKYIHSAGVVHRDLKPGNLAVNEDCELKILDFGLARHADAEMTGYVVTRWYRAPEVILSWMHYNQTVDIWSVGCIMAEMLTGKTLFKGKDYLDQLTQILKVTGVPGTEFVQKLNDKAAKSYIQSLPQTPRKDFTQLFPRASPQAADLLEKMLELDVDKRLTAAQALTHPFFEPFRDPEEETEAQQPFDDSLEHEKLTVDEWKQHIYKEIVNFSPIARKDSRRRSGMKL
UniProt P16591: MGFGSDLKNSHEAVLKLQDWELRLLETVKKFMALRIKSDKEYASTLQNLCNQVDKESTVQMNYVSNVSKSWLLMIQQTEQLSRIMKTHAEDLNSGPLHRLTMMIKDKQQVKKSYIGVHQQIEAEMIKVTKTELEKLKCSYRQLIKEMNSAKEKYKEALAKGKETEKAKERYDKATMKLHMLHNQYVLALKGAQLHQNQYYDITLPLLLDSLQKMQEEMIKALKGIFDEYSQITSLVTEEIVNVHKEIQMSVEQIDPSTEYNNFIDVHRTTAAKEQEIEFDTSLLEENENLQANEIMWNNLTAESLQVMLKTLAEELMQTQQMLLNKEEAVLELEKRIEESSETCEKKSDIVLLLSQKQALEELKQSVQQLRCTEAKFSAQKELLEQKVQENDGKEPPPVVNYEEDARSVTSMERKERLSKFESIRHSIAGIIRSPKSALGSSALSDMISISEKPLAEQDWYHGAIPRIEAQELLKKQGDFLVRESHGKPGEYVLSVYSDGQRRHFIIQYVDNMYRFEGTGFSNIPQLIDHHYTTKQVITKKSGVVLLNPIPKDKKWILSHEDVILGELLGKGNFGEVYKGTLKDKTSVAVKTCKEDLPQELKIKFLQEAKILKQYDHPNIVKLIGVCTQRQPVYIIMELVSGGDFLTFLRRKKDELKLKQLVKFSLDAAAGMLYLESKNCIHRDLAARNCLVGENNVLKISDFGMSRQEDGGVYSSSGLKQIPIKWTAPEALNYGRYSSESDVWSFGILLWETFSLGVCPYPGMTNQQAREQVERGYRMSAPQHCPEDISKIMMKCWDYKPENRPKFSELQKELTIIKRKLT
UniProt P09619, whole entry: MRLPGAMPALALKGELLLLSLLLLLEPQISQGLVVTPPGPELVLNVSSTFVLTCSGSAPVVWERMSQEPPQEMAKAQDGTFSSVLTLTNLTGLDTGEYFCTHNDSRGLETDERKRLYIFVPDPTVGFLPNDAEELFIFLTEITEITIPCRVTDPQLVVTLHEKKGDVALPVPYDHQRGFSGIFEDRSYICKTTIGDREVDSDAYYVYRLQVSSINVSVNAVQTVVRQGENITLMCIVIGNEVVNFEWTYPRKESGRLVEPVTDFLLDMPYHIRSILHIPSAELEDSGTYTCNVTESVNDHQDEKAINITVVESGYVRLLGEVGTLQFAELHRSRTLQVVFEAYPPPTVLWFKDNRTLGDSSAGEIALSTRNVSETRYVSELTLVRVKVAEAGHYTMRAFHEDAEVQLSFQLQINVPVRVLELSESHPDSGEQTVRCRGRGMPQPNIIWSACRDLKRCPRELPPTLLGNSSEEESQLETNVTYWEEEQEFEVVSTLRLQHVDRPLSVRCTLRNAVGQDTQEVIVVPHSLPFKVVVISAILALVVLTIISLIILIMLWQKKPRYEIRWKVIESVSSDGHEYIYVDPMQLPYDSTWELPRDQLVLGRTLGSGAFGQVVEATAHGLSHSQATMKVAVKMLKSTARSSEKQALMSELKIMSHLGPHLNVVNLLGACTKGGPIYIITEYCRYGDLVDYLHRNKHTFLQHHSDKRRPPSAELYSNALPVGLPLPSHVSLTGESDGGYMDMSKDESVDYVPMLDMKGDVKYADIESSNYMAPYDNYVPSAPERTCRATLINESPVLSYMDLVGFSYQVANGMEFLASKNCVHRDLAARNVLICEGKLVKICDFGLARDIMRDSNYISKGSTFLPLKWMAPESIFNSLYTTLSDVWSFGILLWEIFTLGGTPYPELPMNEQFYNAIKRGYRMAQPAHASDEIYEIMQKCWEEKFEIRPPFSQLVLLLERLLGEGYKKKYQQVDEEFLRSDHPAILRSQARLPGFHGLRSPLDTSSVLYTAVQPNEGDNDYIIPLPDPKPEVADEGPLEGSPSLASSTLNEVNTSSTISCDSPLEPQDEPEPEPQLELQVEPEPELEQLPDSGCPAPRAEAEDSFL

For experiment [1], the target named is Serine/threonine-protein kinase PLK2 (Homo sapiens) (UniProt Q9NYY3). As to conditions: at 1 µM.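 Further: residual PLK2 kinase activity expressed as percent of uninhibited control, measured in MOPS buffer at pH 7.0 with EDTA.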
Experiment [2] concerns the target Ribosomal protein S6 kinase alpha-5 (Homo sapiens) (UniProt O75582). As to conditions: at 10 µM.
The target of experiment [3] is T1, Serine/threonine-protein kinase Nek6 (Homo sapiens) (UniProt Q9HC98).
T1 sequence (whole entry): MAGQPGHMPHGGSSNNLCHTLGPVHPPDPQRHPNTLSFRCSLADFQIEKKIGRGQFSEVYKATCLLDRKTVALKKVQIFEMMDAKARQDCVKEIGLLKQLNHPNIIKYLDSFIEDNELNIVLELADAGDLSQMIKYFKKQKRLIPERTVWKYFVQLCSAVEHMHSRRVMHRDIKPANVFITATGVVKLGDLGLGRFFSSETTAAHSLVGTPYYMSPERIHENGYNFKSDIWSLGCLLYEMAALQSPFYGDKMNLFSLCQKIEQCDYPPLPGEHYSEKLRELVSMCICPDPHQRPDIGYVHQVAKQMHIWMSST
As to conditions: at 1 µM.

In experiment [4] the target is Mitogen-activated protein kinase 13 (Homo sapiens) (UniProt O15264). As to conditions: at 1 µM.
The target in experiment [5] is Tyrosine-protein kinase Fer (Homo sapiens) (UniProt P16591). The following applies: at 1 µM.
The target in experiment [6] is Platelet-derived growth factor receptor beta (Homo sapiens) (UniProt P09619). The following applies: at 1 µM.

Molecules are shown by their SMILES. For part of these data: Shown are results outside the selection of strong results, which stands elsewhere. How the calls were made is not given here. The list shows a part of the results, in another mix than the full data.

In the case of `COC(=O)[C@@]1(O)C[C@H]2O[C@]1(C)n1c3ccccc3c3c4c(c5c6ccccc6n2c5c31)C(=O)NC4`, the residual activity in experiment [1] stood at 72%.

For `COc1cc2ncnc(Nc3ccc(OCc4ccccc4)cc3)c2cc1OC`, the results for the residual activity in experiment [2] and in experiment [3] were 138% and inactive: 87%, respectively.

With `O=c1[nH]c2ccccc2n1C1CCN(Cc2ccc(-c3nc4cc5[nH]cnc5cc4nc3-c3ccccc3)cc2)CC1`, the residual activity in experiment [4] was 107%.

On to `O=C1Nc2ccc3ncsc3c2/C1=C/c1c[nH]cn1`, for which the residual activity in experiment [5] was 97%; in experiment [6], 79%.
